Experimental data published in patent US11970576B2, “Beta-peptido sugar-copolymer” (NANYANG TECHNOLOGICAL UNIVERSITY, priority 2017, dated 2024).

What was measured:
Format in all cases: cell-based
E. coli (ATCC 8739) = test system: E. coli (ATCC 8739)
Description: (§1) Antimicrobial activity of block-like copolymers PDGu(x)-b-PBLK(y) against a panel of bacteria including both Gram-positive (S. aureus and B. subtilis) and Gram-negative (E. coli) in terms of minimal inhibition concentration (MIC) were tested. […] The activity was decreased with the increase of sugar ratio. This is reasonable when considering the killing domains became less.

S. aureus (ATCC 29213) = test system: S. aureus (ATCC 29213)
Description: as §1

[1] = test system: methicillin-resistant S. aureus (BAA-40)
Description: as §1

## CC[C@H](C)[C@H](NC(=O)CN)C(=O)NCC(=O)N[C@@H](C)C(=O)N[C@H](C(=O)N[C@@H](CC(C)C)C(=O)N[C@@H](CCCCN)C(=O)N[C@H](C(=O)N[C@@H](CC(C)C)C(=O)N[C@H](C(=O)N[C@H](C(=O)NCC(=O)N[C@@H](CC(C)C)C(=O)N1CCC[C@H]1C(=O)N[C@@H](C)C(=O)N[C@@H](CC(C)C)C(=O)N[C@H](C(=O)N[C@@H](CO)C(=O)N[C@@H](Cc1c[nH]c2ccccc12)C(=O)N[C@H](C(=O)N[C@@H](CCCCN)C(=O)N[C@@H](CCCNC(=N)N)C(=O)N[C@@H](CCCCN)C(=O)N[C@@H](CCCNC(=N)N)C(=O)N[C@@H](CCC(N)=O)C(=O)N[C@@H](CCC(N)=O)C(N)=O)[C@@H](C)CC)[C@@H](C)CC)[C@@H](C)O)[C@@H](C)O)C(C)C)C(C)C [Melittin]
E. coli (ATCC 8739)
  MIC E. coli: 32 µg/mL (≈ 11.2 µM)
S. aureus (ATCC 29213)
  MIC SA 29213: 8 µg/mL (≈ 2.81 µM)
[1]
  MIC MRSA: 8 µg/mL (≈ 2.81 µM)

In brackets after ≈: the same amount, converted by molar mass.
